Results on one compound are retold here after ChEMBL document CHEMBL2321875, “The development of highly potent inhibitors for porcupine” (J Med Chem, 2013).

The structures appear in SMILES notation.

This data set has as its system Plasma. Description: Metabolic stability in human plasma at 2 uM after 24 hrs by LC-MS/MS analysis. Format: ADME, cell-free.

For the compound `O=C(CSc1nc2c(c(=O)n1-c1ccccc1)SCC2)Nc1ccc(-c2ccccc2)cn1`, the Stability entry was “Stable”.
